Data on one substance can be found in patent US20020119121A1, “Compositions and methods for inducing specific cytolytic T cell responses” (priority 2000, published 2002).

For this data set, the system named is 51Cr-labeled recipient LB. Put plainly: Inhibition of LB-directed cytotoxicity by granule exocytosis pathway blockers. As to conditions: CMA 1, 10, 100 nM/L for 2 h or SrCl2 5, 25, 50 mM/L for 18 h; one mean given for either reagent; FIG. 5 E:T 5:1. The text has this: Cytolytic activity of a CTL refers to the secretion of the contents of secretory granules into the immediate vicinity of the target cell to which it attaches. The granules contain perforins, various lysosomal enzymes, and calcium binding proteins that destroy the target cell.

As to strontium chloride [SrCl2], the “mean inhibition of LB-directed cytotoxicity” value turned out to be 87%.
